Measured values from patent US20110224208A1, “NOVEL INHIBITORS OF FLAVIVIRUS REPLICATION” (KATHOLIEKE UNIVERSITEIT LEUVEN, K.U. LEUVEN R&D, priority 2008, published 2011).

Tested on: not listed separately
Assay: Proliferation of exponentially growing Huh-5-2 cells (MTS method)
Conditions: human, CC50, concentration required to inhibit the proliferation of exponentially growing Huh-5-2 cells by 50%; Table 2

SMILES	CC50 at 72 h
COCCN1C(=O)c2ccccc2C(C(=O)Nc2ccc3occc3c2)C1c1cccs1 (stereo not shown) [C195, N-(benzofuran-5-yl)-2-(2-methoxyethyl)-1-oxo-3-(thiophen-2-yl)-1,2,3,4-tetrahydroisoquinoline-4-carboxamide]	72.1 µg/mL (≈ 161 µM)
COCCN1C(=O)c2ccccc2C(C(=O)Nc2cc(C3CC3)nn2C)C1c1cccs1 (stereo not shown) [C197, N-(3-cyclopropyl-1-methyl-1H-pyrazol-5-yl)-2-(2-methoxyethyl)-1-oxo-3-(thiophen-2-yl)-1,2,3,4-tetrahydroisoquinoline-4-carboxamide]	78.2 µg/mL (≈ 174 µM)
COCCN1C(=O)c2ccccc2C(C(=O)Nc2ccc3c(c2)S(=O)(=O)C=C3)C1c1cccs1 (stereo not shown) [C198, N-(1,1-dioxobenzo[b]thiophen-6-yl)-2-(2-methoxyethyl)-1-oxo-3-(thiophen-2-yl)-1,2,3,4-tetrahydroisoquinoline-4-carboxamide]	2.33 µg/mL (≈ 4.71 µM)
COCCN1C(=O)c2ccccc2C(C(=O)Nc2ccc(-n3nc(C)cc3C)cc2)C1c1cccs1 (stereo not shown) [C201, N-(4-(3,5-dimethyl-1H-pyrazol-1-yl)phenyl)-2-(2-methoxyethyl)-1-oxo-3-(thiophen-2-yl)-1,2,3,4-tetrahydroisoquinoline-4-carboxamide]	19.5 µg/mL (≈ 38.9 µM)
COCCN1C(=O)c2ccccc2C(C(=O)Nc2cccc(-c3cnco3)c2)C1c1cccs1 (stereo not shown) [C210, 2-(2-methoxyethyl)-N-(3-(oxazol-5-yl)phenyl)-1-oxo-3-(thiophen-2-yl)-1,2,3,4-tetrahydroisoquinoline-4-carboxamide]	15.7 µg/mL (≈ 33.2 µM)
COCCN1C(=O)c2ccccc2C(C(=O)Nc2onc(C)c2C)C1c1cccs1 (stereo not shown) [C220, N-(3,4-dimethylisoxazol-5-yl)-2-(2-methoxyethyl)-1-oxo-3-(thiophen-2-yl)-1,2,3,4-tetrahydroisoquinoline-4-carboxamide]	81.9 µg/mL (≈ 193 µM)
COCCN1C(=O)c2ccccc2C(C(=O)Nc2ccc(-n3cccc3)c(C#N)c2)C1c1cccs1 (stereo not shown) [C222, N-(3-cyano-4-(1H-pyrrol-1-yl)phenyl)-2-(2-methoxyethyl)-1-oxo-3-(thiophen-2-yl)-1,2,3,4-tetrahydroisoquinoline-4-carboxamide]	16.2 µg/mL (≈ 32.6 µM)
COCCN1C(=O)c2ccccc2C(C(=O)Nc2ccc(Cl)cn2)C1c1cccs1 (stereo not shown) [C223, N-(5-chloropyridin-2-yl)-2-(2-methoxyethyl)-1-oxo-3-(thiophen-2-yl)-1,2,3,4-tetrahydroisoquinoline-4-carboxamide]	79 µg/mL (≈ 179 µM)

Tested on: Huh-5-2 cells
Assay: as above
Conditions: concentration required to inhibit the proliferation of exponentially growing Huh-5-2 cells by 50%; Table 2

SMILES	CC50
COc1cccc(NC(=O)C2c3ccccc3C(=O)N(Cc3ccco3)C2c2cccs2)c1 (stereo not shown) [C4, 2-(Furan-2-ylmethyl)-N-(3-methoxyphenyl)-1-oxo-3-(thiophen-2-yl)-1,2,3,4-tetrahydroisoquinoline-4-carboxamide]	125 µg/mL (≈ 273 µM)
COCCN1C(=O)c2ccccc2C(C(=O)Nc2cccc(OC)c2)C1C (stereo not shown) [C69, 2-(2-methoxyethyl)-N-(3-methoxyphenyl)-3-methyl-1-oxo-1,2,3,4-tetrahydroisoquinoline-4-carboxamide]	125 µg/mL (≈ 339 µM)
COCCN1C(=O)c2cc(OC)c(OC)cc2C(C(=O)Nc2cccc(OC)c2)C1c1cccs1 (stereo not shown) [C75, 6,7-dimethoxy-2-(2-methoxyethyl)-N-(3-methoxyphenyl)-1-oxo-3-(thiophen-2-yl)-1,2,3,4-tetrahydroisoquinoline-4-carboxamide]	125 µg/mL (≈ 252 µM)
COCCN1C(=O)c2ccc(F)cc2C(C(=O)Nc2cccc(OC)c2)C1c1cccs1 (stereo not shown) [C77, 6-fluoro-2-(2-methoxyethyl)-N-(3-methoxyphenyl)-1-oxo-3-(thiophen-2-yl)-1,2,3,4-tetrahydroisoquinoline-4-carboxamide]	125 µg/mL (≈ 275 µM)
COCCN1C(=O)c2ccccc2C(C(=O)Nc2ccc3scnc3c2)C1c1cccs1 (stereo not shown) [C164, N-(benzo[d]thiazol-5-yl)-2-(2-methoxyethyl)-1-oxo-3-(thiophen-2-yl)-1,2,3,4-tetrahydroisoquinoline-4-carboxamide]	20.51 µg/mL (≈ 44.2 µM)

Converted amounts (≈) assume the structure as drawn.
